Reference: PMC6523382 (Pharmaceutics, 2019)

Molecular target: T1, MATE1 (Homo sapiens, UniProt Q96FL8)
T1 sequence (Q96FL8 1-570): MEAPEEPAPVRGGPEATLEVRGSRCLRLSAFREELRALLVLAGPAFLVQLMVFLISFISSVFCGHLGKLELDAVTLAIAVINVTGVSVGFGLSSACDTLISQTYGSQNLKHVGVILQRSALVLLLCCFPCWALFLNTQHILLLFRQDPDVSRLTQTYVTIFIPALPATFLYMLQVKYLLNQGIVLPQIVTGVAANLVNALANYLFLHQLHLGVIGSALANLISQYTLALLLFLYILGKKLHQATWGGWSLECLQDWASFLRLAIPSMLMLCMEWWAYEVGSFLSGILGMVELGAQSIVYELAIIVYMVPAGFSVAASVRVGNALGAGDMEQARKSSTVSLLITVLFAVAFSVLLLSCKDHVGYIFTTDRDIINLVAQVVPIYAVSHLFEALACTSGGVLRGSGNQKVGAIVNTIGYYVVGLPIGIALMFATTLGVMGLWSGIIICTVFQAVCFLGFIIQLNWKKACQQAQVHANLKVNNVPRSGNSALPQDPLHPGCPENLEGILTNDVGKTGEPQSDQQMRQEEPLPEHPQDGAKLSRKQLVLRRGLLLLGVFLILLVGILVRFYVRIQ
Test: Inhibition of MATE1-mediated [14C]metformin uptake in HEK293-MATE1 cells
Format: cell-based
Design: host or cells: HEK293
Experimental: HEK293 cells overexpressing OCT1, OCT2, MATE1, and MATE2-K (HEK293-OCT1, -OCT2, MATE1, and MATE2-K, respectively; Corning, Tewksbury, MA, USA) were used and characterized as previously described. […] In HEK293-MATE1 or -MATE2-K cells, 2 mM sodium butyrate was also supplemented in the culture medium. […] Sigma, St. Louis, MO, USA) and incubated for 30 min in HBSS. In HEK293-MATE1, or -MATE2-K cells, 40 mM ammonium chloride was also added for the outwardly directed proton gradient. […] After the 5 min incubation, cells were washed three times with 200 µL of ice-cold HBSS immediately after placing the plates on ice. Then, the cells were lysed with 10% sodium dodecyl sulfate (SDS) and the cell lysates were mixed with Optiphase cocktail solution. Thereafter, the radioactivity of the cell lysates was measured using a liquid scintillation counter (Microbeta 2, Perkin Elmer Inc., Boston, MA, USA).

Question: Which IC50 does the source give for `CN/C(=N/CCSCc1nc[nH]c1C)NC#N` [cimetidine] here?
Answer: Its IC50 is 550 nM.
